Results: patent US10450306B2, “Isoxazole analogs as FXR agonists and methods of use thereof” (Enanta Pharmaceuticals, Inc., priority 2016, dated 2019)

The chains behind the UniProt entries cited, without tags or fusion partners.
UniProt Q96RI1, whole entry: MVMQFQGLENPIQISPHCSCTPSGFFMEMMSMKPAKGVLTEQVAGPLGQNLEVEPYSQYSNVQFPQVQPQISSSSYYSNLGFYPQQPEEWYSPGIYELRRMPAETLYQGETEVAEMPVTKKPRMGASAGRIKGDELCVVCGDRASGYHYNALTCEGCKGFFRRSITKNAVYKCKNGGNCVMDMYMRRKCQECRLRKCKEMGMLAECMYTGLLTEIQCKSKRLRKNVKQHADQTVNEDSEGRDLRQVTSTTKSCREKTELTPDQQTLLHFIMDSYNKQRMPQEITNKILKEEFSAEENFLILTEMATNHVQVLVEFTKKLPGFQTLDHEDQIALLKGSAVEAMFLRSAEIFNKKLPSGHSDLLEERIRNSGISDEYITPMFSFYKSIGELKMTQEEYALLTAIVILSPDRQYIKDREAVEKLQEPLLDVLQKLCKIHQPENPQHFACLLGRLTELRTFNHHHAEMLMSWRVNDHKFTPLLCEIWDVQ

Molecular target: human FXR (NR1H4) (Homo sapiens, UniProt Q96RI1)
Test: Human FXR (NR1H4) Assay: Gal4 promoter driven luciferase reporter transactivation in CHO cells (Indigo Bioscience kit IB00601)
Type: cell-based
Conditions: for EC50: Human FXR (NR1H4) reporter assay, potency ranges; for Efficacy (%): efficacy normalized to CDCA set as 100%

EC50	Efficacy (%)	Structure (SMILES)
> 1 µM	98%	CN(Cc1c(-c2c(Cl)cccc2Cl)noc1C1CC1)C1CCN(c2nc3ccc(C(=O)NS(=O)(=O)N(C)C)cc3s2)CC1
0.1 to 1 µM	114%	CN(Cc1c(-c2c(Cl)cccc2Cl)noc1C1CC1)C1CCN(c2nc3ccc(C(=O)NS(=O)(=O)c4ccc(C(C)(C)C)cc4)cc3s2)CC1
